Measured values as given in patent US5807742A, “Neurokinin receptor cell lines” (Merrell Pharmaceuticals Inc., priority 1996, dated 1998).

By UniProt entry, the sequences of proteins in these tests, tags left out.
UniProt P05363, whole entry: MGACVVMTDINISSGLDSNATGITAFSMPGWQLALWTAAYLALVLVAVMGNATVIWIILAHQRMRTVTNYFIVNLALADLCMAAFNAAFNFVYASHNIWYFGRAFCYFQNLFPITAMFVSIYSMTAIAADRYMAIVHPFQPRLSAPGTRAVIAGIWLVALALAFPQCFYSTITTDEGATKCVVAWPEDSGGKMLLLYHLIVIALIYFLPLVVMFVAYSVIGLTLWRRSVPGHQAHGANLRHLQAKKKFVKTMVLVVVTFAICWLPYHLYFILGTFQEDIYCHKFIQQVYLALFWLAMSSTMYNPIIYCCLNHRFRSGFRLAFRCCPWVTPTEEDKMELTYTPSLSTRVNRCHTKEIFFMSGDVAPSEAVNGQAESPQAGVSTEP
UniProt P51144, whole entry: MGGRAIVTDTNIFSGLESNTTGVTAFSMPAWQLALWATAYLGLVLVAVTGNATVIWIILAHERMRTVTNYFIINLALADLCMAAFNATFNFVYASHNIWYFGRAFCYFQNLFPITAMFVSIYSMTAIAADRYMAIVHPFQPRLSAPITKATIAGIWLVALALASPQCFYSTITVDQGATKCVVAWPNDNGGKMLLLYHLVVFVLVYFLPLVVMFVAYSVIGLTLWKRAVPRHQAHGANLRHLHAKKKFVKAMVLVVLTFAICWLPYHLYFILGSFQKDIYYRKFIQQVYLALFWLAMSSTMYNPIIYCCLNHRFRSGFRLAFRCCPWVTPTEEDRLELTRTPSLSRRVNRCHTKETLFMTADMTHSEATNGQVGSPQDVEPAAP

Key:
neurokinin A receptor = neurokinin A receptor (Bos taurus, UniProt P05363); test: [125I]NKA receptor binding (saturation/Scatchard and competition) in B82 cells transfected with pSKR56S cDNA (SKLKB82#n); design: species or system bovine; details: SKLKB82#3 cells; FIG. 4
[1] = molecular target: NKA receptor (hamster urinary bladder) (Mesocricetus auratus, UniProt P51144); test: [125I]NKA receptor binding in hamster urinary bladder membranes (standard control); details: FIG. 4

**Q.** What does the source list for `CCCC[C@H](NC(=O)[C@H](CC(C)C)NC(=O)CNC(=O)[C@@H](NC(=O)[C@H](Cc1ccccc1)NC(=O)[C@H](CO)NC(=O)[C@@H](N)CC(=O)O)C(C)C)C(N)=O`?
**A.** potency rank-order, inhibition of [125I]NKA receptor binding (KI) (neurokinin A receptor): followed by Nle^10 NKA (4-10), substance P, and senktide; potency rank-order, inhibition of [125I]NKA receptor binding (KI) [1]: followed by Nle^10 NKA (4-10), substance P, and senktide
